Reference: US20260274853A1, “BIFUNCTIONAL COMPOUNDS CONTAINING PYRIMIDINE DERIVATIVES FOR DEGRADING CYCLIN-DEPENDENT KINASE 2 VIA UBIQUITIN PROTEASOME PATHWAY” (NIKANG THERAPEUTICS, INC., priority 2022, published 2026)

Assays:
CDK2 [1] = target: T1, CDK2 (Homo sapiens, UniProt P24941); test: CDK2 HTRF assay: cellular endogenous CDK2 level in OVCAR3 cells; details: read-out: DC50 (half maximal degradation concentration of CDK2), 24 hours compound treatment
Experimental: Effects of compounds on cellular CDK2 level can be monitored by a high-throughput HTRF assay or traditional Western Blot assay.
To determine half maximal degradation concentration (DC50) values of compounds, cellular CDK2 level was measured in 96-well format using HTRF total CDK2 cellular kit (Cat #64CDK2TPEG) from Cisbio.
On Day 1, OVCAR3 cells were seeded into 96-well tissue-culture treated plates at 20,000 cells/well in 200 μL and incubated overnight at 37° C. in CO2 atmosphere. On Day 2 cells were treated with compounds at concentration ranging from 0.3 to 10,000 nM using HP D300 digital dispenser. 24 hours after compound treatment, cell culture media was removed by flicking the plate and tapping the plate against clean paper towel. Immediately 30 μL 1× lysis buffer was supplemented from the kit and the plate was incubated at room temperature on shaker for 30 min. After homogenization by pipetting up and down, 8 μL cell lysate from 96-well cell culture plate was transferred to 384-well small volume white detection plate. […] Detection plates were incubated overnight at room temperature and read on ClarioStar (BMG Labtech) in TR-FRET mode (665 nM and 620 nM). […] Half maximal degradation concentration (DC50) values were calculated with a four-parameter logistic fit using GraphPad Prism (version 8; La Jolla, CA). […]

CDK2 [2] = target: T1, CDK2; test: Inhibition of CDK2: phospho-Rb (S807/811) HTRF measurement in OVCAR3 cells; details: read-out: pRb (nM), IC50 in pRB(S807/811) assay, 24 h compound treatment
Experimental: Phosphorylation of RB protein at S807/811 were measured using HTRF phospho-RB cellular kits (Cat #64RBS807PEG) from Cisbio.
On Day 1, OVCAR3 (dependent on CDK2) cells were seeded into 96-well tissue-culture treated plates at 20,000 cells/well in 200 μL and incubated overnight at 37° C. in CO2 atmosphere. On Day 2, the cells were treated with test compounds at concentrations from 0.3 to 10,000 nM using HP D300 digital dispenser. Twenty-four hours after compound treatment, cell culture media was removed by flicking the plate and tapping the plate against clean paper towel. Immediately 30 μL 1× lysis buffer was supplemented from the kit and the plate was incubated at room temperature on shaker for 30 min. After homogenization by pipetting up and down, 8 μL cell lysate from 96-well cell culture plate was transferred to 384-well small volume white detection plate. 2 μL premixed detection solution was added and the plate was covered with sealer. […] Detection plates were incubated for 4 h at room temperature and read on ClarioStar (BMG Labtech) in TR-FRET mode ([…]). […] Half maximal inhibition concentration (IC50) values are calculated with a four-parameter logistic fit using GraphPad Prism (version 8; La Jolla, CA). […]

SMILES	DC50 (CDK2 [1]) [nM]	IC50 (CDK2 [2]) [nM]
Cn1cnc(-c2nc(NC3CCN(S(=O)(=O)c4cccc(CN5CCC(c6ccc7c(N8CCC(=O)NC8=O)nn(C)c7c6)CC5)c4)CC3)ncc2C(F)(F)F)c1	< 100	< 100
O=C1CCN(c2nn(CC(F)(F)F)c3cc(N4CCN(Cc5cccc(S(=O)(=O)N6CCC(Nc7ncc(C(F)(F)F)c(-c8cnn(CC(F)(F)F)c8)n7)CC6)c5)CC4)ccc23)C(=O)N1	–	100 to 500
